Measurements reported in US11366103B2, “Multi-well micropatterning by ablation” (Massachusetts Institute of Technology, priority 2006, dated 2022).

System: micropatterned co-cultures of primary human hepatocytes and 3T3-J2 fibroblasts
Conditions: 9 days of exposure, up to 200 μM

CN(CCOc1ccc(CC2SC(=O)NC2=O)cc1)c1ccccn1 (stereo not shown) [Rosiglitazone, rosiglitazone]
chronic toxicity: minimal chronic toxicity
